The text below walks through data of PubChem BioAssay AID624246 (National Center for Advancing Translational Sciences (NCATS), 2012).

Protein sequences, listed by entry. Tags and fused reporters are not part of them.
UniProt P11308, whole entry: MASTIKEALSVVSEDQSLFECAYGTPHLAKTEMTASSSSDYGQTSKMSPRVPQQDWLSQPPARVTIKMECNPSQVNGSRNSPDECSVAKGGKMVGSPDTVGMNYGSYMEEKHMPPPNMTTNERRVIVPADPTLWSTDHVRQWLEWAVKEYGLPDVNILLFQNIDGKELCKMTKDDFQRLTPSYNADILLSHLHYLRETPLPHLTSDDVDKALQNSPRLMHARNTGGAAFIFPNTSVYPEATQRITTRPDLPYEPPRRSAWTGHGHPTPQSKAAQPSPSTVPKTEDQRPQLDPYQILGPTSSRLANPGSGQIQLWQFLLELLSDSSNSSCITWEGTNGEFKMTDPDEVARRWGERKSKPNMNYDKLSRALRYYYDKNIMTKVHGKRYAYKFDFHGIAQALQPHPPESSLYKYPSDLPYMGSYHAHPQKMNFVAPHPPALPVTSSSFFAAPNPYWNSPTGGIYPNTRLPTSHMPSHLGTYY

Structures are written as SMILES. Only a part is listed here, and it is no random draw. Some salts and complexes are drawn in separate pieces, as the source files them; their charges need not balance. Calls of active or inactive are those of the source. The call rests on the fitted dose curve; in most records, active means well fitted inhibition curve with a large enough effect in the polarisation, with a control signal flat; inconclusive means small, poorly fitted or top-dose-only effect, or effect the other way, or a change in a side signal; inactive means no such curve, though single readings can be large or run the other way; the % refers to the polarisation.

The target of the test is Transcriptional regulator ERG (Homo sapiens) (UniProt P11308). Put plainly: qHTS for Small Molecule Inhibitors of the ERG Ets/DNA interaction. Further: % of control where 0% means no effect. Conditions: fluorescence polarization, His-ERG Ets domain / labelled DNA; at 76.9 µM (top of the series) unless noted. An excerpt: The Ets family of proteins is a family of ~30 conserved transcription factors defined by the presence of an ~85 amino acid domain referred to as the Ets domain, which mediates sequence-specific DNA binding to a core DNA element GGAA/T.The Ets family member ERG has been linked to several neoplasms. […] More extensive studies of the effects of over-expression of ERG in prostate cells have recently been carried out and have shown that over-expression of ERG results in increased invasion. […] We will carry out a high throughout screen to identify inhibitors of the interaction between ERG and DNA using a fluorescence polarization (FP) assay with a His-tagged ERG Ets domain and fluorescently-labeled DNA probes to develop small molecule inhibitors of this interaction as probes to test this hypothesis and lay the groundwork for the development of targeted therapies against ERG. NIH Molecular Libraries Probe Production Network [MLPCN] NIH Chemical Genomics Center [NCGC] Grant: NS066464 PI Name: John Bushweller, University of Virgina
1.5 ul of protein solution (1 uM ERG domain in 300mM KCl, 50mM Tris-HCl, 1mM EDTA, 1mM DTT, pH 7.5); 20 nl Control plate and compound library plate; 1.5 ul mixture of 5 nM Fluorescein-DNA and 100nM Texas-615-DNA solution in same buffer as above solution; measure fluorescence polarization sequentially for fluorescein (Excitation = 480 nm, Emission = 535s, 535p nm) and Texas red (Excitation = 555 nm, Emission = 632s, 632p nm).
`O=C(NCC1(N2CCCCC2)CCCCC1)c1ccc(Cl)nc1`: the FP activity, negative = inhibition was inactive: -3.37%.
As to `Cc1cc(C)cc(N(C(=O)c2ccccc2)C2CCN(C(=O)OC(C)(C)C)CC2)c1`, the FP activity, negative = inhibition was inactive: 8.43%.
For `O=C(NCC1(N2CCOCC2)CCCCC1)c1cc2ccccc2o1`, the FP activity, negative = inhibition was inactive: 0.205%.
In the case of `N#CC1(Nc2ccccc2)CCN(Cc2ccccc2)CC1` it was inactive: 0.227%; in that of `O=C(NCC1(N2CCCCC2)CCCCC1)c1ccc(Cl)s1`, inactive: -7.9% [at 15.4 µM]; in that of `O=C(OC1CN2CCC1CC2)C1c2ccccc2Oc2ccccc21` (configuration not stated), inactive: 3.78%.
The result for `COc1ccc(Cl)cc1C(=O)NCC1(N2CCOCC2)CCCCC1` reads inactive: -2.6%.
For the compound `O=C1C(O)=C([N+](=O)[O-])C(=O)C(O)=C1[N+](=O)[O-]`, the FP activity, negative = inhibition was inactive: -16.1%.
As to `CCOC(=O)N1CCC(Nc2ccc(OC)cc2)CC1`, the FP activity, negative = inhibition is inactive: 14.5%.
In the case of `O=C(NCC1(N2CCOCC2)CCCCC1)c1ccc(Cl)cc1` it was inactive: -6.6%; in that of `O=C1CCN(Cc2ccccc2)CC1`, inactive: -13.5%; in that of `CCOc1ccc(C)cc1CN(CCCl)CCCl`, inactive: 13.7%.
Turning to `COc1ccccc1C(=O)NCC1(N2CCOCC2)CCCCC1`, the FP activity, negative = inhibition is inactive: -7.62%.
Regarding `CCCCOc1ccc(C(=O)NCC2(N3CCOCC3)CCCCC2)cc1`, the FP activity, negative = inhibition was inactive: 0.415%.
As to `O=P1(N(CCCl)CCCl)SCCCS1`, the FP activity, negative = inhibition is inactive: 107%.
In the case of `O=C(NCC1(N2CCCCC2)CCCCC1)c1ccc(F)cc1` it was inactive: 1.66%.
Turning to `CCOC(=O)N1CCC(Nc2ccc(F)cc2)CC1`, the FP activity, negative = inhibition was inactive: 10.9%.
In the case of `COc1ccc(NC2CCN(CCc3ccccc3)CC2)c(OC)c1` it was inactive: -2.45%.
The result for `CCOC(=O)N1CCC(Nc2cccc(C)c2)CC1` reads inactive: -3.61%; that for `COc1cc(C(=O)NCC2(N(C)C)CCCCC2)ccc1OC(F)F`, inactive: -6.7%; that for `O=C(NCC1(N2CCCCC2)CCCCC1)c1ccc(OC(F)F)cc1`, inactive: 12.6%.
The result for `CCN1CCC(Nc2ccc(Cl)cc2)CC1` reads inactive: 1.31%.
With `N#CC1(Nc2ccccc2)CCN(CCc2ccccc2)CC1`, the FP activity, negative = inhibition is inactive: -5.52%.
For `CSc1ccc(C(=O)NCC2(N3CCOCC3)CCCCC2)cc1`, the FP activity, negative = inhibition was inactive: -7.87%.
The result for `O=C(NCC1(N2CCCCC2)CCCCC1)c1cccc([N+](=O)[O-])c1` reads inactive: 4.66%; that for `CCOc1ccc(C(=O)NCC2(N3CCOCC3)CCCCC2)cc1`, inactive: -4.86%.
`O=[N+]([O-])c1cc([N+](=O)[O-])c(NCC2CCS(=O)(=O)C2)c([N+](=O)[O-])c1` (configuration not stated): the FP activity, negative = inhibition was inactive: 1.88%.
Regarding `O=C(NCC1(N2CCCCC2)CCCCC1)c1cccc(C(F)(F)F)c1`, the FP activity, negative = inhibition is inactive: -2.77%.
In the case of `CCCOc1cccc(C(=O)NCC2(N3CCOCC3)CCCCC2)c1` it was inactive: 1.14%; in that of `O=C(NCC1(N2CCOCC2)CCCCC1)c1cc(=O)[nH]c2ccccc12`, inactive: -0.343%; in that of `COc1cc(C(=O)NCC2(N3CCCCC3)CCCCC2)ccc1OC(F)F`, inactive: -12.4%.
Take `CC(C)c1ccc(C(=O)NCC2(N3CCOCC3)CCCCC2)cc1`: the FP activity, negative = inhibition was inactive: 16.4%.
In the case of `COc1ccc(NC2CCN(C(=O)OC(C)(C)C)CC2)cc1` it was inactive: 6.79%.
The result for `CN1CCN(CCOC(=O)C(O)(c2ccccc2)c2ccccc2)CC1` reads inactive: -3.21%; that for `CC(C)c1ccc(NC2CCN(C(=O)OC(C)(C)C)CC2)cc1`, inactive: -2.57%.
In the case of `COc1ccc(CN(CCCl)CCCl)cc1Cl` it was inactive: 11.4%; in that of `CN(C)c1cccc(C(=O)NCC2(N3CCCCC3)CCCCC2)c1`, inactive: -5.13%.
Consider `O=[N+]([O-])c1cc([N+](=O)[O-])c(OC2CCCCC2O)c([N+](=O)[O-])c1` (configuration not stated), for which the FP activity, negative = inhibition is inactive: 2.21%.
Take `COc1cc(OC)c(C(=O)NCC2(N(C)C)CCCCC2)cc1OC`: the FP activity, negative = inhibition is inactive: -1.43%.
In the case of `O=C(NCC1(N2CCOCC2)CCCCC1)c1cc(F)c(F)cc1Cl`, the FP activity, negative = inhibition is inactive: -3.38%.
In the case of `O=C(OC1CN2CCC1CC2)c1ccc([N+](=O)[O-])cc1` (configuration not stated) it was inactive: -2.4%; in that of `CN1CCC(Nc2cccc(F)c2)CC1`, inactive: 0.485%.
In the case of `COc1ccc2c(c1O)-c1c(O)c(OC)cc3c1[C@H](C2)[N+](C)(C)CC3.O=[N+]([O-])c1cc([N+](=O)[O-])c([O-])c([N+](=O)[O-])c1[O-]` it was inactive: -4.63%; in that of `O=C(NCC1(N2CCCCC2)CCCCC1)c1cncc(Br)c1`, inactive: 1.69%.
Take `CCCCOc1ccccc1C(=O)NCC1(N2CCOCC2)CCCCC1`: the FP activity, negative = inhibition was inactive: -0.999%.
On to `O=C(NCC1(N2CCOCC2)CCCCC1)c1ccccc1Br`, for which the FP activity, negative = inhibition is inactive: -1.33%.
The result for `CCCOc1ccc(C(=O)NCC2(N(C)C)CCCCC2)cc1OC` reads inactive: 3.62%.
